# Test results as given in US20210290732A1, “GLP-1R and GCGR Agonists, Formulations, and Methods of Use” (Spitfire Pharma LLC, priority 2020, published 2021).
# Target: bovine serum albumin (BSA) (bovine) (UniProt P02769)
# Assay: cell-based or functional assay
substance,measurement,value
Exendin-4 (from UniProt P26349 48-86) (peptide),"Fold Improvement (EC50 in presence of BSA/EC50 in presence of OVA), GLP-1R assay",1 fold
